≈ marks a conversion by molar mass, not a printed value.

One compound from article PMC8219408, “Switching Cytolytic Nanopores into Antimicrobial Fractal Ruptures by a Single Side Chain Mutation” (ACS nano, 2021) can be followed below.

Holding throughout (type): cell-based
In data set [1] the test system is Human erythrocytes. As to the kind of experiment: Hemolysis assay. To be noted: peptide at 250 μM; 10% (vol/vol) human erythrocytes in PBS pH 7.2, 1 h at room temperature, absorbance 550 nm, deionized water = 100%, triplicate. As for the experimental part: For hemolysis measurements 10% (vol/vol) suspensions of human erythrocytes with peptides were used. Phosphate buffer saline (PBS, 10 mM, pH 7.2) was used to rinse human red blood cells (4x) using repeated centrifugation and re-suspension (3 min, 3000 × g). The cells were incubated for 1 h at room temperature in deionized water (fully hemolysed control), with peptide in PBS or just PBS, which was followed by centrifugation (5 min, 10000 × g). The obtained supernatant was then separated from the pellet, and absorbance (550 nm) was measured in a SpectraMax i3x multi-mode microplate reader (Molecular Devices). Absorbance obtained for the suspension that was treated with deionized water gave complete (100%) hemolysis. Table S1 summarises the results, with the values corresponding to % hemolysis for peptide at 250 μM. All tests were performed in triplicate.

The subject of data set [2] is B. subtilis (ATCC 6633). To be noted: broth microdilution (CLSI), Mueller Hinton broth, 24 h at 37 °C, triplicate. As for the experimental part: (§1) MIC values were obtained using broth microdilution against different bacteria following the protocols by Clinical and Laboratory Standards Institute. Specifically, each bacterium (100 μL of 0.5–1 × 10^6 CFU per ml) in Mueller Hinton media broth (Oxoid) was incubated in 96-well microtiter plates at 37 °C on a 3D orbital shaker. 100 μL of serial twofold peptide dilutions (from 100 to 0 μM) were used. Following peptide addition, absorbance (600 nm) was measured in a SpectraMax i3x multi-mode microplate reader (Molecular Devices). The lowest peptide concentrations inhibiting visible bacterial growth after 24 h at 37 °C was defined as MICs. All tests were performed in triplicate.
A general note: Broth dilution looks for growth in wells or tubes with falling amounts of substance.

The test system of data set [3] is E. coli (ATCC 15597). To be noted: broth microdilution (CLSI), Mueller Hinton broth, 0.5–1 × 10^6 CFU per ml, 24 h at 37 °C, absorbance 600 nm, triplicate. How it is done:
as §1

For data set [4], the system named is P. aeruginosa (ATCC 27853). Particulars: broth microdilution (CLSI), Mueller Hinton broth, 24 h at 37 °C, triplicate. How it is done: as §1
Data set [5] relates to S. typhimurium (6192). To be noted: broth microdilution (CLSI), Mueller Hinton broth, 24 h at 37 °C, triplicate. How it is done: as §1

Regarding `CC[C@H](C)[C@H](NC(=O)CN)C(=O)NCC(=O)N[C@@H](C)C(=O)N[C@H](C(=O)N[C@@H](CC(C)C)C(=O)N[C@@H](CCCCN)C(=O)N[C@H](C(=O)N[C@@H](CC(C)C)C(=O)N[C@H](C(=O)N[C@H](C(=O)NCC(=O)N[C@@H](CC(C)C)C(=O)N1CCC[C@H]1C(=O)N[C@@H](C)C(=O)N[C@@H](CC(C)C)C(=O)N[C@H](C(=O)N[C@@H](CO)C(=O)N[C@@H](Cc1c[nH]c2ccccc12)C(=O)N[C@H](C(=O)N[C@@H](CCCCN)C(=O)N[C@@H](CCCNC(=N)N)C(=O)N[C@@H](CCCCN)C(=O)N[C@@H](CCCNC(=N)N)C(=O)N[C@@H](CCC(N)=O)C(=O)N[C@@H](CCC(N)=O)C(N)=O)[C@@H](C)CC)[C@@H](C)CC)[C@@H](C)O)[C@@H](C)O)C(C)C)C(C)C` [melittin, reference compound], the “% hemolysis, at 250 μM” value in data set [1] is recorded as 100%. The Minimum inhibitory concentration was found to be 3 µM (≈ 8.54 µg/mL) in data set [2], 3 µM (≈ 8.54 µg/mL) in data set [3], 12 µM (≈ 34.2 µg/mL) in data set [4] and 3 µM (≈ 8.54 µg/mL) in data set [5].
